Measured values from US5272268A, “Dipeptide derivatives” (Shionogi & Co., Ltd., priority 1990, dated 1993).
Like-named read-outs stand apart in the source and are kept apart here.

Chains of the proteins cited; added tags and fusions are not shown. Residues count along the entry.
UniProt P00797, 67-406 limits assumed: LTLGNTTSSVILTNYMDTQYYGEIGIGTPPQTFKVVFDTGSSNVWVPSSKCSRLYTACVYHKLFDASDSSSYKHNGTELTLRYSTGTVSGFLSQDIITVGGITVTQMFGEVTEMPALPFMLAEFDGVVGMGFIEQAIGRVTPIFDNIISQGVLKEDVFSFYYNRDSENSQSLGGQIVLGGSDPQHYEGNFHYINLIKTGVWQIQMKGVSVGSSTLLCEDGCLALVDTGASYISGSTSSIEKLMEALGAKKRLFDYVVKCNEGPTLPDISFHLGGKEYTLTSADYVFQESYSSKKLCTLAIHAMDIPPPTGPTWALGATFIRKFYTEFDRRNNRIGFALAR
UniProt Q6DLS0, 67-406 limits assumed: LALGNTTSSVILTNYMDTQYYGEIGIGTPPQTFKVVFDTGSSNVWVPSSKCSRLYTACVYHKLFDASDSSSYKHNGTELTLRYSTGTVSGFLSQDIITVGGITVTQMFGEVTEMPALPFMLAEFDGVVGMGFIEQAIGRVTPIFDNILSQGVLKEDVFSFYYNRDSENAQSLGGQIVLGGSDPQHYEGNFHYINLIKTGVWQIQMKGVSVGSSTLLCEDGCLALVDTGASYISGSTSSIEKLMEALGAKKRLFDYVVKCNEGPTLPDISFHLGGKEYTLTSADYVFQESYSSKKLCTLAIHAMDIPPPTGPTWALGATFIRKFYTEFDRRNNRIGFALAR

Experiments:
conscious monkey = experiment: Vasodepressor activity, direct technique, conscious monkey
Protocol: Vasodepressor activity of the compounds of the invention was also measured with direct technique using an conscious monkey, where a monkey was administered a compound of the invention orally or intravenously (a solution in Tween 20).

[1] = molecular target: intrinsic renin contained in the renatured human plasma (Homo sapiens, UniProt P00797); experiment: Renin inhibition in vitro (angiotensin I production in renatured human plasma, RIA)
Protocol: Commercially available lyophilized human plasma (Ortho, Bi-Level Plasma Renin Control) was renatured by dissolving in water. Angiotensinogen was allowed to react with intrinsic renin contained in the renatured plasma to generate angiotensin I (AI), which was quantitatively measured with radioimmunoassay (RIA). Thus, potency of the plasma renin was determined on the basis of the AI production. For this purpose, Renin RIA kit (RENIN' RIABEAD®) manufacture by Dinabott was used. All of the reagents necessary for the measurement of the AI production were available from the attachment of the kit, and the measurement was conducted according to the manufacturer's direction.
To the plasma (0.2 ml) were added all of the reagents, and the mixture was combined with either of sample solutions (0.002 ml) of various concentrations which had been prepared by dissolving a test compound in different amount of ethanol. Ethanol (0.002 ml) containing no test compound was used as a control solution. The amount of AI produced was measured after 60 minutes incubation. Renin inhibition potency of test compound was determined by comparing the amount of AI produced by a sample solution with that produced by a control solution.

Plasma renin activity = Plasma renin activity (Macaca fascicularis, UniProt Q6DLS0); experiment: Renin inhibition in vivo (plasma renin activity after oral administration to hyperrenin monkeys); details: 15 mg/kg orally; for Renin inhibition potency, 4 h: 4 h after administration; for Renin inhibition potency, 6 h: 6 h after administration; for Renin inhibition potency, 8 h: 8 h after administration; for Renin inhibition potency, 24 h: 24 h after administration
Protocol: Crab-eating monkeys (Cynomolgus monkeys) (2.8-5.0 kg) were fed on low sodium diet (Na 7.15 mg/100 g feed) for six days, during which the monkeys intramuscularly received furosemide (2 mg/kg body weight) every other day from the second day of the experiment, in order to make the monkeys hyperrenin condition.
After seven days from the low sodium feeding, the monkeys were restrained on a monkey chair. Compounds to be tested are dissolved in 0.1 M citric acid/physiological saline or suspended in water with addition of β-cyclodextrin, and orally administered to the monkeys using a stomach probe (15 mg/kg body weight). […] For the blood collection, an injection syringe containing 30 μl of 6% aqueous EDTA·2Na solution was used. The collected blood was transferred into a test tube and centrifuged (3000 rpm, 10 minutes) at 4° C., and the resultant supernatant was used to determine the renin content. Plasma renin activity (AI(ng)/ml/h value) was measured using Radioimmunoassy kit commercially available from Dinabott Co. in the same manner as in the foregoing in vitro test. Renin inhibition potencies of the compounds tested, which were expressed as a percentage of renin activity relative to the activity before the administration, are listed in Table 12.

[2] = read-out: IC50 (concentration which inhibits renin activity by 50%), 60 minutes incubation
[3] = low sodium diet + furosemide, tested form: 3/2H2O
[4] = low sodium diet + furosemide, tested form: 2/3H2O, 2/5CH2Cl2
[5] = low sodium diet + furosemide, tested form: 1/2H2O
[6] = furosemide not administered, tested form: H2O
[7] = low sodium diet + furosemide, tested form: 0.2H2O, 0.1iPr2O
[8] = low sodium diet + furosemide, tested form: 0.5H2O, 0.25CH2Cl2

SMILES | IC50 [1, 2] [nM] | Renin inhibition potency, Max (Plasma renin activity; low sodium diet + furosemide) [%] | Renin inhibition potency, Mean (Plasma renin activity; low sodium diet + furosemide) [%] | Renin inhibition potency, 4 h (Plasma renin activity; low sodium diet + furosemide) [%] | Renin inhibition potency, 6 h (Plasma renin activity; low sodium diet + furosemide) [%] | Renin inhibition potency, 8 h (Plasma renin activity; low sodium diet + furosemide) [%] | Renin inhibition potency, 24 h (Plasma renin activity; low sodium diet + furosemide) [%] | also measured
O=C(C[C@H](O)[C@H](CC1CCCCC1)NC(=O)[C@H](Cc1cscn1)NC(=O)[C@H](Cc1ccccc1)NS(=O)(=O)N1CCOCC1)c1ccncc1 | 0.51 | 98 | 86 | 95 | 83 | 70 | 11 | Maximum reduced BP (conscious monkey; i.v., 0.3 mg/kg): 5 -ΔmmHg; Maximum reduced BP (conscious monkey; i.v., 1 mg/kg): 20 -ΔmmHg; Maximum reduced BP (conscious monkey; p.o., 10 mg/kg): 5 -ΔmmHg; Maximum reduced BP (conscious monkey; p.o., 30 mg/kg): 10 -ΔmmHg; Maximum reduced BP (conscious monkey; p.o., 100 mg/kg): 35 -ΔmmHg
O=C(CN1CCOCC1)N[C@@H](Cc1cccc2ccccc12)C(=O)N[C@@H](Cc1cscn1)C(=O)N[C@@H](CC1CCCCC1)[C@@H](O)CC(=O)c1cccc(OCCN2CCOCC2)c1 |  |  |  |  |  |  |  | IC50 ([1]; read-out: IC50 (concentration which inhibits renin activity by 50%), 60 minutes incubation, tested form: 3/2H2O): 2.34 nM; Renin inhibition potency, 4 h (Plasma renin activity; [3]): 78%; Renin inhibition potency, 6 h (Plasma renin activity; [3]): 72%; Renin inhibition potency, 8 h (Plasma renin activity; [3]): 51%; Renin inhibition potency, 24 h (Plasma renin activity; [3]): 12%; Renin inhibition potency, Max (Plasma renin activity; [3]): 92%; Renin inhibition potency, Mean (Plasma renin activity; [3]): 84%
CNc1cccc(C(=O)C[C@H](O)[C@H](CC2CCCCC2)NC(=O)[C@H](Cc2cscn2)NC(=O)[C@H](Cc2ccccc2)NS(=O)(=O)N2CCOCC2)c1 |  |  |  |  |  |  |  | IC50 ([1]; read-out: IC50 (concentration which inhibits renin activity by 50%), 60 minutes incubation, tested form: 2/3H2O, 2/5CH2Cl2): 0.52 nM; Renin inhibition potency, 4 h (Plasma renin activity; [4]): 97%; Renin inhibition potency, 6 h (Plasma renin activity; [4]): 89%; Renin inhibition potency, 8 h (Plasma renin activity; [4]): 83%; Renin inhibition potency, 24 h (Plasma renin activity; [4]): 53%; Renin inhibition potency, Max (Plasma renin activity; [4]): 97%; Renin inhibition potency, Mean (Plasma renin activity; [4]): 74%
O=C(C[C@H](O)[C@H](CC1CCCCC1)NC(=O)[C@H](Cc1cscn1)NC(=O)[C@@H](CC(=O)N1CCOCC1)Cc1cccc2ccccc12)c1ccncc1 | 4.98 | 95 | 89 | 87 | 76 | 54 | 18 | 
CC(C)(C)S(=O)(=O)C[C@@H](Cc1ccccc1)C(=O)N[C@@H](Cc1cscn1)C(=O)N[C@@H](CC1CCCCC1)[C@@H](O)CC(=O)C1CCCCC1 | 1.32 | 83 | 71 | 69 |  |  |  | 
CC(C)(C)S(=O)(=O)C[C@@H](Cc1ccccc1)C(=O)N[C@@H](Cc1cscn1)C(=O)N[C@@H](CC1CCCCC1)[C@@H](O)CC(=O)c1cccc(OCCN2CCOCC2)c1 | 1.78 | 81 | 65 | 81 | 73 | 64 | 28 | 
O=C(CN1CCOCC1)N[C@@H](Cc1cccc2ccccc12)C(=O)N[C@@H](Cc1cscn1)C(=O)N[C@@H](CC1CCCCC1)[C@@H](O)CC(=O)c1ccncc1 | 1.98 | 98 | 88 | 88 | 63 | 33 | 0 | 
CC(C)(C)S(=O)(=O)C[C@@H](Cc1ccccc1)C(=O)N[C@@H](Cc1c[nH]cn1)C(=O)N[C@@H](CC1CCCCC1)[C@@H](O)CC(=O)C1CCCCC1 |  |  |  |  |  |  |  | IC50 ([1]; read-out: IC50 (concentration which inhibits renin activity by 50%), 60 minutes incubation, tested form: 1/2H2O): 2.73 nM; Renin inhibition potency, 4 h (Plasma renin activity; [5]): 55%; Renin inhibition potency, Max (Plasma renin activity; [5]): 55%; Renin inhibition potency, Mean (Plasma renin activity; [5]): 37%
CC(C)(C)S(=O)(=O)C[C@@H](Cc1ccccc1)C(=O)N[C@@H](Cc1cscn1)C(=O)N[C@@H](CC1CCCCC1)[C@@H](O)CC(=O)c1ccncc1 | 1.56 | 99 | 90 | 77 | 56 | 42 | 28 | 
CC(C)(C)S(=O)(=O)C[C@@H](Cc1ccccc1)C(=O)N[C@@H](Cc1c[nH]cn1)C(=O)N[C@@H](CC1CCCCC1)[C@@H](O)CC(=O)c1ccsc1 |  |  |  |  |  |  |  | IC50 ([1]; read-out: IC50 (concentration which inhibits renin activity by 50%), 60 minutes incubation, tested form: H2O): 6.17 nM; Renin inhibition potency, 4 h (Plasma renin activity; [6]): 60%; Renin inhibition potency, Max (Plasma renin activity; [6]): 60%; Renin inhibition potency, Mean (Plasma renin activity; [6]): 52%
CN(C)S(=O)(=O)NC[C@H](O)[C@H](CC1CCCCC1)NC(=O)[C@H](Cc1cscn1)NC(=O)[C@H](Cc1ccccc1)CS(=O)(=O)C(C)(C)C |  |  |  |  |  |  |  | IC50 ([1]; read-out: IC50 (concentration which inhibits renin activity by 50%), 60 minutes incubation, tested form: 0.2H2O, 0.1iPr2O): 0.8 nM; Renin inhibition potency, 4 h (Plasma renin activity; [7]): 89%; Renin inhibition potency, 8 h (Plasma renin activity; [7]): 80%; Renin inhibition potency, Max (Plasma renin activity; [7]): 100%; Renin inhibition potency, Mean (Plasma renin activity; [7]): 97%
O=C(N[C@@H](CC1CCCCC1)[C@@H](O)CNS(=O)(=O)c1cccnc1)[C@H](Cc1cscn1)NC(=O)[C@H](Cc1ccccc1)NS(=O)(=O)N1CCOCC1 |  |  |  |  |  |  |  | IC50 ([1]; read-out: IC50 (concentration which inhibits renin activity by 50%), 60 minutes incubation, tested form: 0.5H2O, 0.25CH2Cl2): 0.19 nM; Renin inhibition potency, 4 h (Plasma renin activity; [8]): 82%; Renin inhibition potency, 8 h (Plasma renin activity; [8]): 67%; Renin inhibition potency, Max (Plasma renin activity; [8]): 83%; Renin inhibition potency, Mean (Plasma renin activity; [8]): 71%
